According to ChEMBL document CHEMBL5104179, “Discovery and Structural Characterization of Small Molecule Binders of the Human CTLH E3 Ligase Subunit GID4” (J Med Chem, 2022):

molecular target: T1, Glucose-induced degradation protein 4 homolog (Homo sapiens) (UniProt Q8IVV7)
T1 sequence (whole entry): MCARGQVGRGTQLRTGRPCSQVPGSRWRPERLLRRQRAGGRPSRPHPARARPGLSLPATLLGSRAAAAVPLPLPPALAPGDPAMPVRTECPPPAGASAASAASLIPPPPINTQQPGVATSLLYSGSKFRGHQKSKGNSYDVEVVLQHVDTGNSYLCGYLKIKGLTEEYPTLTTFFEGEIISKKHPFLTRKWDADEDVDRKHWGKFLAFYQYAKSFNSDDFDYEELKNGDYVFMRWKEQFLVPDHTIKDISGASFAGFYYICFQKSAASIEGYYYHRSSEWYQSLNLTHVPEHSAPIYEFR

Compared with `CC1CN=C(Nc2ccccc2F)S1` (stereo not drawn), `CC1CN=C(Nc2cccc(F)c2)S1` (stereo not drawn) is higher in ΔTm: 1.6 °C for the first, 6 °C for the second.

First: Nc1ccc(NC2=NCCS2)cc1
Second: Clc1ccc(NC2=NCCCS2)cc1
The ΔTm of the first is higher: 1.8 °C for the first, 0.1 °C for the second.

First: Fc1ccccc1C1NCCc2sccc21 (stereo not drawn)
Second: Clc1cccc(C2NCCc3sccc32)c1 (stereo not drawn)
The ΔTm of the first is lower: 5.8 °C for the first, 7.3 °C for the second.

Compared with `Brc1cccc2c1CCNC2c1ccccc1` (stereo not drawn), `c1ccc(C2NCCc3[nH]ccc32)cc1` (stereo not drawn) is higher in ΔTm: 7 °C for the first, 9.2 °C for the second.

First: Cc1ccc(C2NCCc3sccc32)cc1 (stereo not drawn)
Second: Nc1cccc(C2NCCc3sccc32)c1 (stereo not drawn)
The ΔTm of the first is lower: 5.9 °C for the first, 6.6 °C for the second.

`CC(C)(C)OC(=O)N1CC2CC1CN2` (stereo not drawn) and `COc1ccc(C2NCCc3ccccc32)cc1` (stereo not drawn) are the same in ΔTm: 6.7 °C for the first, 6.7 °C for the second.

Compared with `CCCCNCC(=O)N[C@H](Cc1ccc(C(C)(C)C)cc1)C(=O)N[C@@H](Cc1cccc(OC)c1)C(=O)NC`, `CNC(=O)[C@H](Cc1ccc(C)cc1)NC(=O)[C@@H](C/C=C/c1ccccc1)NC(=O)CNCc1ccccc1` is higher in ΔTm: 8.7 °C for the first, 8.8 °C for the second.

Compared with `c1ccc(C2NCCc3occc32)cc1` (stereo not drawn), `COc1cccc(C2CCCc3ccccc32)c1` (stereo not drawn) is lower in ΔTm: 8.7 °C for the first, 7.8 °C for the second.

First: CC1CN=C(Nc2ccc(O)cc2)S1 (stereo not drawn)
Second: CC1CN=C(Nc2cccc(O)c2)S1 (racemic)
The ΔTm of the first is lower: 3 °C for the first, 5.3 °C for the second.
